For test [1], the target named is T1, CRF2R (Homo sapiens, UniProt Q13324).
T1 sequence (Q13324 1-411): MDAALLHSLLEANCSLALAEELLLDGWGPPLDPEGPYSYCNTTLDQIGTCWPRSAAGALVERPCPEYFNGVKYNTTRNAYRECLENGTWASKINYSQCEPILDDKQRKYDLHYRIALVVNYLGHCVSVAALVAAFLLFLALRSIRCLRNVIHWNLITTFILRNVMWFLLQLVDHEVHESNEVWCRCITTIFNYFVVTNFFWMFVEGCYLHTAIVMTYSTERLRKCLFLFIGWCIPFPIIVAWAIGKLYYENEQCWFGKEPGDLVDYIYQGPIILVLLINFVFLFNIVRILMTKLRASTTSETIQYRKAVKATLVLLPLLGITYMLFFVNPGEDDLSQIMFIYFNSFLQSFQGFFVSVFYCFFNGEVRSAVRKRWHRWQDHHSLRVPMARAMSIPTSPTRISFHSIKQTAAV
Nature of the test: CRF2R agonist activation (EC50 / Emax), called comparative CRF binding. Particulars: for Emax: read-out: CRF2R Emax. Type of test: cell-based. A digest of the protocol: (§1)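 CRFR-expressing cells + peptide vs vehicle; read-out cAMP (lysate assay) or CRE-linked reporter expression (luciferase, CAT, fluorescent protein, alkaline phosphatase, etc.). Signal compared against vehicle-treated cells.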

The target of test [2] is T2, CRF1R (Homo sapiens, UniProt P34998).
T2 sequence (P34998 24-415): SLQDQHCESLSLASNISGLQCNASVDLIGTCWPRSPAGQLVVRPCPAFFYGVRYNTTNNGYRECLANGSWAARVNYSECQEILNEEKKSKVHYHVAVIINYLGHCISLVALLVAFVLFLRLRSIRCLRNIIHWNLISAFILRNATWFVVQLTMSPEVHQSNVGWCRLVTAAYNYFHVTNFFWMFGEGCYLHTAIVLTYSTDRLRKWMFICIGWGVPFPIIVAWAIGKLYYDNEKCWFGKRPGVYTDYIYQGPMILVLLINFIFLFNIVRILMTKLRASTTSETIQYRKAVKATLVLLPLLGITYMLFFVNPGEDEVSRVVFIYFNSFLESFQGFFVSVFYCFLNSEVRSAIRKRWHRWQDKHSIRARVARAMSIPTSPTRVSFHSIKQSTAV
In words: CRF1R agonist activation (EC50 / Emax), called comparative CRF binding. The following applies: for Emax: read-out: CRF1R Emax. Type of test: cell-based. Put shortly:
as §1

We go through six compounds from US6936585B2, “Corticotropin releasing factor 2 receptor agonists” (priority 2002, dated 2005).

Molecules are shown by their SMILES.

Usually Emax stands for the greatest response seen or fitted, relative to the assay's reference. On to `CC[C@H](C)[C@H](NC(=O)[C@@H](NC(=O)[C@H](CC(=O)O)NC(=O)[C@H](CC(C)C)NC(=O)[C@H](CC(C)C)NC(=O)[C@H](CCCNC(=N)N)NC(=O)[C@H](C)NC(=O)[C@H](CC(N)=O)NC(=O)[C@H](CC(N)=O)NC(=O)[C@H](C)NC(=O)[C@H](C)NC(=O)[C@H](CCC(N)=O)NC(=O)[C@H](CCC(N)=O)NC(=O)[C@H](CCCCN)NC(=O)[C@H](CCC(=O)O)NC(=O)[C@H](CCCCN)NC(=O)[C@H](CCC(=O)O)NC(=O)[C@H](CCC(N)=O)NC(=O)[C@H](CCCCN)NC(=O)[C@H](CCC(=O)O)NC(=O)[C@@H](NC(=O)[C@H](CCC(=O)O)NC(=O)[C@@H](NC(=O)[C@@H](NC(=O)[C@H](CCCCN)NC(=O)[C@H](CCCNC(=N)N)NC(=O)[C@H](CC(C)C)NC(=O)[C@H](CC(C)C)NC(=O)[C@H](Cc1c[nH]c2ccccc12)NC(=O)[C@H](Cc1ccc(O)cc1)NC(=O)[C@@H]1CCCN1C(=O)[C@@H](NC(=O)[C@H](CC(=O)O)NC(=O)[C@@H](NC(=O)[C@H](CO)NC(=O)[C@@H](NC(=O)[C@@H]1CCCN1C(=O)[C@@H]1CCCN1C(=O)CNC(=O)[C@@H]1CCC(=O)N1)[C@@H](C)CC)[C@@H](C)CC)C(C)C)C(C)C)[C@@H](C)CC)[C@@H](C)CC)[C@@H](C)O)C(N)=O` [compound 372], for which the Emax in test [1] stood at 100%; in test [2], 13%.

In the case of `CC[C@H](C)[C@H](NC(=O)[C@@H](NC(=O)[C@H](CC(=O)O)NC(=O)[C@H](CC(C)C)NC(=O)[C@H](CC(C)C)NC(=O)[C@H](CC(C)C)NC(=O)[C@H](CCCNC(=N)N)NC(=O)[C@H](CC(N)=O)NC(=O)[C@H](CC(N)=O)NC(=O)[C@H](C)NC(=O)[C@H](C)NC(=O)[C@H](CCC(N)=O)NC(=O)[C@H](CCC(N)=O)NC(=O)[C@H](CCCCN)NC(=O)[C@H](CCC(=O)O)NC(=O)[C@H](CCCCN)NC(=O)[C@H](CCC(=O)O)NC(=O)[C@H](CCC(N)=O)NC(=O)[C@H](CCCCN)NC(=O)[C@H](CCC(=O)O)NC(=O)[C@@H](NC(=O)[C@H](CCC(=O)O)NC(=O)[C@@H](NC(=O)[C@H](CCSC)NC(=O)[C@H](CCCCN)NC(=O)[C@H](CCCNC(=N)N)NC(=O)[C@H](CC(C)C)NC(=O)[C@H](CC(C)C)NC(=O)[C@H](Cc1ccccc1)NC(=O)[C@H](Cc1c[nH]c2ccccc12)NC(=O)[C@@H]1CCCN1C(=O)[C@H](CC(C)C)NC(=O)[C@H](CC(=O)O)NC(=O)[C@@H](NC(=O)[C@H](CO)NC(=O)[C@@H](NC(=O)[C@@H]1CCCN1C(=O)[C@@H]1CCCN1C(=O)CNC(=O)[C@@H]1CCC(=O)N1)[C@@H](C)CC)[C@@H](C)CC)[C@@H](C)CC)[C@@H](C)CC)[C@@H](C)O)C(N)=O` [compound 187], the Emax stood at 100% in test [1] and 72% in test [2].

On to `CC[C@H](C)[C@H](NC(=O)[C@@H](NC(=O)[C@H](CC(=O)O)NC(=O)[C@H](CC(C)C)NC(=O)[C@H](CC(C)C)NC(=O)[C@H](CC(C)C)NC(=O)[C@H](CCCNC(=N)N)NC(=O)[C@H](CC(N)=O)NC(=O)[C@H](CC(N)=O)NC(=O)[C@H](C)NC(=O)[C@H](C)NC(=O)[C@H](CCC(N)=O)NC(=O)[C@H](CCC(N)=O)NC(=O)[C@H](CCCCN)NC(=O)[C@H](CCC(=O)O)NC(=O)[C@H](CCCCN)NC(=O)[C@H](CCC(=O)O)NC(=O)[C@H](CCC(N)=O)NC(=O)[C@H](CCCCN)NC(=O)[C@H](CCC(=O)O)NC(=O)[C@@H](NC(=O)[C@H](CCC(=O)O)NC(=O)[C@@H](NC(=O)[C@H](CCSC)NC(=O)[C@H](CCCCN)NC(=O)[C@H](CCCNC(=N)N)NC(=O)[C@H](CC(C)C)NC(=O)[C@H](CC(C)C)NC(=O)[C@H](CC(N)=O)NC(=O)[C@@H](NC(=O)[C@@H]1CCCN1C(=O)[C@H](CC(C)C)NC(=O)[C@H](CC(=O)O)NC(=O)[C@@H](NC(=O)[C@H](CO)NC(=O)[C@@H](NC(=O)[C@@H]1CCCN1C(=O)[C@@H]1CCCN1C(=O)CNC(=O)[C@@H]1CCC(=O)N1)[C@@H](C)CC)[C@@H](C)CC)[C@@H](C)O)[C@@H](C)CC)[C@@H](C)CC)[C@@H](C)O)C(N)=O` [compound 59], for which the Emax in test [1] amounted to 27%; in test [2], 10%.

As usually defined, the EC50 is the midpoint of the concentration-response curve. High values mean a need for much substance, low ones an effect from little substance. Regarding `CC[C@H](C)[C@H](NC(=O)[C@H](CCCNC(=N)N)NC(=O)[C@H](C)NC(=O)[C@H](CC(C)C)NC(=O)[C@H](CC(C)C)NC(=O)[C@H](CCCNC(=N)N)NC(=O)[C@H](C)NC(=O)[C@H](CC(N)=O)NC(=O)[C@H](CC(N)=O)NC(=O)[C@H](C)NC(=O)[C@H](C)NC(=O)[C@H](CCC(N)=O)NC(=O)[C@H](CCC(N)=O)NC(=O)[C@H](CCCCN)NC(=O)[C@H](CCC(=O)O)NC(=O)[C@H](CCCCN)NC(=O)[C@H](CCC(=O)O)NC(=O)[C@H](CCC(N)=O)NC(=O)[C@H](CCCCN)NC(=O)[C@H](CCC(=O)O)NC(=O)[C@@H](NC(=O)[C@H](CCC(=O)O)NC(=O)[C@@H](NC(=O)[C@@H](NC(=O)[C@H](CCCCN)NC(=O)[C@H](CCCNC(=N)N)NC(=O)[C@H](CC(C)C)NC(=O)[C@H](CC(C)C)NC(=O)[C@H](CCC(N)=O)NC(=O)[C@H](Cc1ccccc1)NC(=O)[C@@H]1CCCN1C(=O)[C@@H](NC(=O)[C@H](CC(=O)O)NC(=O)[C@@H](NC(=O)[C@H](CO)NC(=O)[C@@H](NC(=O)[C@@H]1CCCN1C(=O)[C@@H]1CCCN1C(=O)CNC(=O)[C@@H]1CCC(=O)N1)[C@@H](C)CC)[C@@H](C)CC)C(C)C)C(C)C)[C@@H](C)CC)[C@@H](C)CC)C(N)=O` [compound 383], the EC50 in test [1] was 9.31 nM; in test [2] (CRF1R EC50), at least 1000 nM. For the same compound, the Emax in test [1] amounted to 96%; in test [2], 55%.

`CC[C@H](C)[C@H](NC(=O)[C@H](CCCNC(=N)N)NC(=O)[C@H](C)NC(=O)[C@H](CC(C)C)NC(=O)[C@H](CC(C)C)NC(=O)[C@H](CCCNC(=N)N)NC(=O)[C@H](C)NC(=O)[C@H](CC(N)=O)NC(=O)[C@H](CC(N)=O)NC(=O)[C@H](C)NC(=O)[C@H](C)NC(=O)[C@H](CCC(N)=O)NC(=O)[C@H](CCC(N)=O)NC(=O)[C@H](CCCCN)NC(=O)[C@H](CCC(=O)O)NC(=O)[C@H](CCCCN)NC(=O)[C@H](CCC(=O)O)NC(=O)[C@H](CCC(N)=O)NC(=O)[C@H](CCCCN)NC(=O)[C@H](CCC(=O)O)NC(=O)[C@@H](NC(=O)[C@H](CCC(=O)O)NC(=O)[C@@H](NC(=O)[C@@H](NC(=O)[C@H](CCCCN)NC(=O)[C@H](CCCNC(=N)N)NC(=O)[C@H](CC(C)C)NC(=O)[C@H](CC(C)C)NC(=O)[C@H](CCC(N)=O)NC(=O)[C@H](Cc1ccc(O)cc1)NC(=O)[C@@H]1CCCN1C(=O)[C@@H](NC(=O)[C@H](CC(=O)O)NC(=O)[C@@H](NC(=O)[C@H](CO)NC(=O)[C@@H](NC(=O)[C@@H]1CCCN1C(=O)[C@@H]1CCCN1C(=O)CNC(=O)[C@@H]1CCC(=O)N1)[C@@H](C)CC)[C@@H](C)CC)C(C)C)C(C)C)[C@@H](C)CC)[C@@H](C)CC)C(N)=O` [compound 375]: the Emax in test [1] worked out at 100%; in test [2] it was 22%.

With `CC[C@H](C)[C@H](NC(=O)[C@@H](NC(=O)[C@H](CC(=O)O)NC(=O)[C@H](CC(C)C)NC(=O)[C@H](CC(C)C)NC(=O)[C@H](CC(C)C)NC(=O)[C@H](CCCNC(=N)N)NC(=O)[C@H](CC(N)=O)NC(=O)[C@H](CC(N)=O)NC(=O)[C@H](C)NC(=O)[C@H](C)NC(=O)[C@H](CCC(N)=O)NC(=O)[C@H](CCC(N)=O)NC(=O)[C@H](CCCCN)NC(=O)[C@H](CCC(=O)O)NC(=O)[C@H](CCCCN)NC(=O)[C@H](CCC(=O)O)NC(=O)[C@H](CCC(N)=O)NC(=O)[C@H](CCCCN)NC(=O)[C@H](CCC(=O)O)NC(=O)[C@@H](NC(=O)[C@H](CCC(=O)O)NC(=O)[C@@H](NC(=O)[C@H](CCSC)NC(=O)[C@H](CCCCN)NC(=O)[C@H](CCCNC(=N)N)NC(=O)[C@H](CC(C)C)NC(=O)[C@H](CC(C)C)NC(=O)CNC(=O)[C@@H](NC(=O)[C@@H]1CCCN1C(=O)[C@H](CC(C)C)NC(=O)[C@H](CC(=O)O)NC(=O)[C@@H](NC(=O)[C@H](CO)NC(=O)[C@@H](NC(=O)[C@@H]1CCCN1C(=O)[C@@H]1CCCN1C(=O)CNC(=O)[C@@H]1CCC(=O)N1)[C@@H](C)CC)[C@@H](C)CC)[C@@H](C)CC)[C@@H](C)CC)[C@@H](C)CC)[C@@H](C)O)C(N)=O` [compound 75], the values for the Emax in test [1] and in test [2] were 52% and 5%, respectively.
